{"source": "paper PMC12464334", "about": "“Reprogramming of cancer metabolism via photoresponsive nano-PROTAC enhances pyroptosis-mediated immunotherapy” (Signal Transduction and Targeted Therapy, 2025)", "key": {"[1]": {"settings": "intravenous, equivalent to 5 mg/kg VPF, ex vivo NIRF 3 h after administration, n = 3"}, "[2]": {"settings": "carrier-free"}, "[3]": {"experimental": "The morphology in distilled water was observed via transmission electron microscopy (TEM; Philips). UV‒vis and fluorescence spectra were measured via a UV‒vis spectrometer (Agilent Technologies) and a fluorescence spectrometer (Hitachi), respectively. ROS generation was quantified via a bleaching assay using 1,3-diphenylisobenzofuran (DPBF; Cat. No. 105481; Sigma Aldrich)."}, "[4]": {"settings": "intravenous, blood fluorescence, n = 5"}, "[5]": {"settings": "orthotopic TNBC mice, i.v. administration", "experimental": "BL imaging was conducted every 4 days following the intraperitoneal injection of D-luciferin. The tumor volumes and body weights were measured every 2 days. Mice with tumor volumes exceeding 500 mm^3 were considered deceased."}}, "data": [{"substance": "VPF-KRRPIYPALAK-lonidamine [NanoTAC]", "values": [{"measurement": "tumor accumulation, fold of NanoTAC over VPF", "setting": "[1]", "value": 3.57, "unit": "fold"}, {"measurement": "drug-loading capacity, total", "setting": "[2]", "value": 78.55, "unit": "%"}, {"measurement": "drug-loading, PROTAC", "setting": "[2]", "value": 49.14, "unit": "%"}, {"measurement": "drug-loading, photosensitizer", "setting": "[2]", "value": 29.41, "unit": "%"}, {"measurement": "hydrodynamic diameter", "setting": "[3]; DLS, Zetasizer", "value": "73.58 ± 0.72", "unit": "nm"}, {"measurement": "zeta potential", "setting": "[3]; Zetasizer, distilled water", "value": "13.14 ± 1.59", "unit": "mV"}, {"measurement": "changes in average size or polydispersity index in mouse serum", "setting": "[3]; over 4 days, DLS, n = 5", "value": "no significant changes in average size or polydispersity index"}, {"measurement": "time for which detectable amounts remain in the blood", "setting": "[4]", "value": "up to 48 h"}, {"measurement": "damage in normal tissues (H&E of major organs)", "setting": "[5]", "value": "no damage was observed in normal tissues"}, {"measurement": "cytotoxicity with laser irradiation", "setting": "4T1 cells; +L (40 mW, 500 s), CCK-8, n = 5, compared with NanoTAC (−L) and VPF (+L)", "value": "substantially greater cytotoxicity"}, {"measurement": "cytotoxicity without photoirradiation", "setting": "4T1 cells; −L, CCK-8, n = 5", "value": "minimal TNBC cell death"}]}]}
